# Experimental data taken from PubChem BioAssay (Tox21).
# “And” between values parts separate entries of the source, which are not always exact repeats. Equal entries are not always repeated. The entries are a selection whose mix differs from that of the whole data set. Inconclusive results are not listed. The source made the active and inactive calls. The call rests on the fitted dose curve.
# Assay: qHTS assay to identify small molecule agonists of the hypoxia (HIF-1) signaling pathway - cell viability counter screen (AID 1224844); further: nearly all actives have a fitted effect of over 50% in size
# Settings: HRE-bla ME-180 viability, CellTiter-Glo luminescence, 17 h; at 35.3 µM (top of the series)
# Excerpt: National Center for Advancing Translational Sciences [NCATS]
# NIH Chemical Genomics Center [NCGC]
# U.S. Environmental Protection Agency [EPA]
# National Institutes of Environmental Health Sciences [NIEHS]
# National Toxicology Program [NTP]
# U.S. Food and Drug Administration [FDA]
# Hypoxia-inducible factor-1 (HIF-1) is the major hypoxia-regulated transcription factor that controls cellular responses to low oxygen concentration. HIF-1 is composed of two subunits: hypoxia responsive HIF-1-alpha and constitutively expressed HIF-1-beta, which is also known as aryl hydrocarbon receptor nuclear translocator. During hypoxic conditions, HIF-1-alpha heterodimerizes with HIF-1-beta and translocates into the nucleus where the HIF-1 complex binds to the hypoxia-response element (HRE) and activates expression of target genes such as VEGF (vascular endothelial growth factor). The HIF-1 pathway is essential to normal growth and development, and is involved in the pathophysiology of cancer, inflammation, and ischemia.
# Using a beta-lactamase reporter-gene under control of the hypoxia response element, a cell-based assay [CellSensor(TM) HRE-bla ME-180 from Life Technologies, Carlsbad, CA] was used to measure hypoxia-induced signaling. Tox21 10K library compounds were measured for their ability to induce the reporter gene activity. The cytotoxicity of the Tox21 compound library against HRE-bla ME-180 cell line was tested in parallel by measuring cell viability using CellTiter-Glo assay (Promega, Madison, WI) in the same assay wells.
# Tox21 Assay Protocol Summary:
# HRE-bla ME-180 cells were dispensed at 2,000 cells per well in 6 uL of assay medium containing 0.5% dialyzed FBS into black wall/clear-bottom 1536-well plates using a Multidrop Combi (Thermo Scientific, Waltham, MA) dispenser. After the assay plates were incubated at 37C and 5% CO2 for 5 hrs, 23 nL of compounds dissolved in DMSO, positive controls or DMSO only was transferred to each well of the assay plate using a Pintool station (Kalypsys, San Diego, CA). The assay plates were incubated at 37C and 5% CO2 for 17 hrs. One uL of LiveBLAzerTM B/G FRET substrate (CCF4-AM) (Life Technologies) was added to each well using a Flying Reagent Dispenser (FRD, Aurora Discovery, San Diego, CA). After 2 hr incubation at room temperature, fluorescence intensity (405 nm excitation, 460 nm and 530 nm emissions) was measured using an Envision plate reader (PerkinElmer, Shelton, CT). For cytotoxicity, 4 ul/well of CellTiter-Glo reagent was added into the assay plates using an FRD. After 30 min incubation at room temperature, the luminescence intensity was measured using a ViewLux plate reader (PerkinElmer).
# On the % scale 0 is the no-effect control and ±100 the full control effect.
row,Structure (SMILES),"activity change, negative = cytotoxicity"
1,OCCSCCO,inactive: 1.69%

# Same assay, conditions: HRE-bla ME-180 viability, CellTiter-Glo luminescence, 17 h; at 76.8 µM (top of the series)
row,Structure (SMILES),"activity change, negative = cytotoxicity"
1,OCCSCCO,inactive: -1.67%

# Same assay, conditions: HRE-bla ME-180 viability, CellTiter-Glo luminescence, 17 h; at 76.8 µM (top of the series) unless noted
row,Structure (SMILES),"activity change, negative = cytotoxicity"
1,O=[N+]([O-])[O-].[NH4+],inactive: 6.5% and inactive: -4.56%
2,N=C(N)N[N+](=O)[O-],inactive: 4.43%
3,COc1ccc([N+](=O)[O-])cc1[N+](=O)[O-],inactive: 1.48%
4,C/C1=C2N=C(/C=C3N=C(/C(C)=C4\[N-][C@@](C)([C@@H]5N=C1[C@](C)(CCC(=O)NC[C@@H](C)OP(=O)([O-])O[C@H]1[C@@H](O)[C@@H](n6cnc7cc(C)c(C)cc76)O[C@@H]1CO)[C@H]5CC(N)=O)[C@@](C)(CC(N)=O)[C@@H]4CCC(N)=O)[C@@](C)(CC(N)=O)[C@@H]\3CCC(N)=O)C(C)(C)[C@@H]/2CCC(N)=O.[C-]#N.[Co+3],inactive: -1.01% [at 35.3 µM]
5,CCN(CC)CCCl,inactive: -14.1%
6,Cc1c([N+](=O)[O-])cccc1[N+](=O)[O-],inactive: 2.65% and inactive: 8.15%
7,CCOP(=O)(CC)OCC,inactive: 2.13%
8,CN(C)CCCl,inactive: -21.6%
9,COP(C)(=O)OC,inactive: 6.31%
10,Cc1cccc([N+](=O)[O-])c1[N+](=O)[O-],inactive: 15.4% [at 35.3 µM]
11,Cc1ccc([N+](=O)[O-])cc1[N+](=O)[O-],inactive: 7.7% and inactive: -7.85%
12,[NH4+].[O-][Cl+3]([O-])([O-])[O-],inactive: 3.91% and inactive: 1.39%
13,CC(C)N(CCO)C(C)C,inactive: -33.4%
14,CC(C)OP(C)(=O)OC(C)C,inactive: 8.06% and inactive: 0.459%
15,CP(=O)(O)OCCC[Si](O)(O)O,inactive: 0.47%
16,CCOP(=O)(CC)Oc1ccc([N+](=O)[O-])cc1 (stereo unspecified),inactive: 1.01% [at 35.3 µM]
17,Nc1cc([N+](=O)[O-])cc([N+](=O)[O-])c1O,inactive: 21.6%
18,N#CBr,inactive: 7.17%
19,O=[N+]([O-])OCC(CO[N+](=O)[O-])(CO[N+](=O)[O-])CO[N+](=O)[O-],inactive: 4.91%
